# Reference: US9890152B2 (Genentech, Inc., priority 2012, dated 2018)
# Sequences of proteins named here, by UniProt entry; tags and fusion partners are left off. Residues count along the entry.
# UniProt P00533, 25-1210 T790M/L858R limits assumed: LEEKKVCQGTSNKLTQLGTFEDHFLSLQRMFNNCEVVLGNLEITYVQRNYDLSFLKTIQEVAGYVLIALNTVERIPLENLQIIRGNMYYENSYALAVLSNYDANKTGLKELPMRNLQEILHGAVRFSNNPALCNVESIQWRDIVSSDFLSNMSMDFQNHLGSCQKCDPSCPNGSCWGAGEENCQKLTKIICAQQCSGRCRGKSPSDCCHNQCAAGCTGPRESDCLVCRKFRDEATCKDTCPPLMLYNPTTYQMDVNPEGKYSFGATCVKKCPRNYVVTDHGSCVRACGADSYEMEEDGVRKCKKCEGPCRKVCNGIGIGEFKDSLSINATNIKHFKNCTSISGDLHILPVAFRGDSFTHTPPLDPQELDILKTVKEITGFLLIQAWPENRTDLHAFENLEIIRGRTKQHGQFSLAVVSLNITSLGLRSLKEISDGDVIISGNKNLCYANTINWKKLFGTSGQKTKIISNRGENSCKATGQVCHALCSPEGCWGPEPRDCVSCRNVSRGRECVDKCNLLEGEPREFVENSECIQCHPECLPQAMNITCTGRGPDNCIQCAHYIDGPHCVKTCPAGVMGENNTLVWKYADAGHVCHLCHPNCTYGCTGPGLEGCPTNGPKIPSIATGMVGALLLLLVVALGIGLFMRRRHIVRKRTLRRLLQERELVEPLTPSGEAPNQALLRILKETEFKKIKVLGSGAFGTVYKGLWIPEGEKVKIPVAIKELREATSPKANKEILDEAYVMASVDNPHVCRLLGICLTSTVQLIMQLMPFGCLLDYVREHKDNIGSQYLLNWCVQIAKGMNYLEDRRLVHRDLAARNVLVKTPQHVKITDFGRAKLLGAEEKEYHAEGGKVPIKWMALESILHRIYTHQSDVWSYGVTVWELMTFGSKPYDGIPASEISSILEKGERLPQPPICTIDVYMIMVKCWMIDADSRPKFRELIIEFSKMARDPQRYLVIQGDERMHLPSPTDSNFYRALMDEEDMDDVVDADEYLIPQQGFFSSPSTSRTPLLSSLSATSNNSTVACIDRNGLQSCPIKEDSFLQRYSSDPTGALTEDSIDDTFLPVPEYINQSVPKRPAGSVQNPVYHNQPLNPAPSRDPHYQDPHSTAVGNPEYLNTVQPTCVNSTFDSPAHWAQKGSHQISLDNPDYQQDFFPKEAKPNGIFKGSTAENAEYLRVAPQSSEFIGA
# Target: EGFR T790M L858R (Homo sapiens, UniProt P00533, L858R/T790M)
# Assay: biochemical
# Conditions: EGFR(T790M/L858R) Ki (μM), 5 μM ATP, 30 min, room temperature; apparent Ki (Morrison) converted by Cheng-Prusoff, Km of ATP 1.3 μM
row,Compound,Ki
1,"Cc1nc2cnc(Nc3ccnc(Nc4ccn(C)n4)n3)cc2n1C(C)C [Example 415, N^4-(1-isopropyl-2-methyl-1H-imidazo[4,5-c]pyridin-6-yl)-N^2-(1-methyl-1H-pyrazol-3-yl)pyrimidine-2,4-diamine]",0.866 µM
2,"Cc1nc2cnc(Nc3ccnc(-c4cnn(C5CNC5)c4)n3)cc2n1C(C)C [Example 416, N-(2-(1-(azetidin-3-yl)-1H-pyrazol-4-yl)pyrimidin-4-yl)-1-isopropyl-2-methyl-1H-imidazo[4,5-c]pyridin-6-amine]",0.152 µM
3,"CC(C)n1c(CO)nc2cnc(Nc3ccnc(N4CCC(C)(O)CC4)n3)cc21 [Example 418, 1-(4-((2-(hydroxymethyl)-1-isopropyl-1H-imidazo[4,5-c]pyridin-6-yl)amino)pyrimidin-2-yl)-4-methylpiperidin-4-ol]",0.0384 µM
4,"Cc1nc2cnc(Nc3ccnc(NCCc4cn[nH]c4)n3)cc2n1C(C)C [Example 420, N^2-(2-(1H-pyrazol-4-yl)ethyl)-N^4-(1-isopropyl-2-methyl-1H-imidazo[4,5-c]pyridin-6-yl)pyrimidine-2,4-diamine]",0.0302 µM
5,"COC1CCN(c2nccc(Nc3cc4c(ccn4CCS(C)(=O)=O)cn3)n2)CC1 [Example 421, N-(2-(4-methoxypiperidin-1-yl)pyrimidin-4-yl)-1-(2-(methylsulfonyl)ethyl)-1H-pyrrolo[3,2-c]pyridin-6-amine]",0.403 µM
6,"CSc1cn(-c2nccc(Nc3cc4c(cn3)nc(C)n4C(C)C)n2)cn1 [Example 422, 1-isopropyl-2-methyl-N-(2-(4-(methylthio)-1H-imidazol-1-yl)pyrimidin-4-yl)-1H-imidazo[4,5-c]pyridin-6-amine]",0.0607 µM
7,"Cc1nc2cnc(Nc3ccnc(-n4cnc(C(C)(C)O)c4)n3)cc2n1C(C)C [Example 423, 2-(1-(4-((1-isopropyl-2-methyl-1H-imidazo[4,5-c]pyridin-6-yl)amino)pyrimidin-2-yl)-1H-imidazol-4-yl)propan-2-ol]",0.169 µM
8,"Cc1nc2cnc(Nc3ccnc(-c4cnn(C(C)(C)C(N)=O)c4)n3)cc2n1C(C)C [Example 424, 2-(4-(4-((1-isopropyl-2-methyl-1H-imidazo[4,5-c]pyridin-6-yl)amino)pyrimidin-2-yl)-1H-pyrazol-1-yl)-2-methylpropanamide]",0.105 µM
9,"Cc1nc2cnc(Nc3ccnc(-c4cnn(C(C)C#N)c4)n3)cc2n1C(C)C (centres unmarked) [Example 425, 2-(4-(4-((1-isopropyl-2-methyl-1H-imidazo[4,5-c]pyridin-6-yl)amino)pyrimidin-2-yl)-1H-pyrazol-1-yl)propanenitrile]",0.0658 µM
10,"CNC(=O)C(C)(C)n1cc(-c2nccc(Nc3cc4c(cn3)nc(C)n4C(C)C)n2)cn1 [Example 426, 2-(4-(4-((1-isopropyl-2-methyl-1H-imidazo[4,5-c]pyridin-6-yl)amino)pyrimidin-2-yl)-1H-pyrazol-1-yl)-N,2-dimethylpropanamide]",0.449 µM
11,"Cc1nc2cnc(Nc3ccnc(N4CCC(O)C(C)(C)C4)n3)cc2n1C(C)C (centres unmarked) [Example 427, 1-(4-((1-isopropyl-2-methyl-1H-imidazo[4,5-c]pyridin-6-yl)amino)pyrimidin-2-yl)-3,3-dimethylpiperidin-4-ol]",0.0249 µM
12,"Cc1nc2cnc(Nc3ccnc(N4CCC(N)C(C)(C)C4)n3)cc2n1C(C)C (centres unmarked) [Example 428, N-(2-(4-amino-3,3-dimethylpiperidin-1-yl)pyrimidin-4-yl)-1-isopropyl-2-methyl-1H-imidazo[4,5-c]pyridin-6-amine]",0.639 µM
13,"Cc1nc2cnc(Nc3ccnc(-c4cnn(CC5CNC5)c4)n3)cc2n1C(C)C [Example 429, N-(2-(1-(azetidin-3-ylmethyl)-1H-pyrazol-4-yl)pyrimidin-4-yl)-1-isopropyl-2-methyl-1H-imidazo[4,5-c]pyridin-6-]",0.22 µM
14,"Cc1nc2cnc(Nc3ccnc(-c4cnn(CCCN)c4)n3)cc2n1C(C)C [Example 430, N-(2-(1-(3-aminopropyl)-1H-pyrazol-4-yl)pyrimidin-4-yl)-1-isopropyl-2-methyl-1H-imidazo[4,5-c]pyridin-6-amine]",0.0398 µM
